Data set [1] is classed as ADME, organism-based, Sprague-Dawley. The settings on record: rat, in vivo, iv.
The format of data set [2] is ADME, organism-based, Sprague-Dawley. Conditions: rat, in vivo, iv. The source holds these as a separate data set.

On to `C=C[C@H]1CN2CCc3c([nH]c4cccc(OC)c34)[C@@H]2C[C@@H]1/C(=C\OC)C(=O)OC`, for which the CL in data set [1] turned out to be 5.3 L/h/kg. In addition, the Vz (in general, the apparent volume that relates the amount in the body to the concentration in plasma or blood) in data set [2] came out at 71.9 L/kg.

Source of the values: ChEMBL document CHEMBL5053503 (2021).
